Columns and labels:
SARS-CoV-2 Mac1 = SARS-CoV-2 Mac1 (Severe acute respiratory syndrome coronavirus 2, UniProt P0DTD1); assay type: binding; conditions: FRET assay, text and Fig. 1C

| SMILES | IC50 (SARS-CoV-2 Mac1) | concentration required for inhibition of MHV replication (MHV-JHM) |
| --- | --- | --- |
| COC(=O)c1c(NC(=O)[C@H]2CCCC[C@@H]2C(=O)O)sc2c1CCCCC2 [Compound 25, (1S,2S)-2-{[3-(methoxycarbonyl)-4H,5H,6H,7H,8H-cyclohepta[b]thiophen-2-yl]carbamoyl}cyclohexane-1-carboxylic acid] | inactive | – |
| COC(=O)c1c(NC(=O)[C@@H]2CCCC[C@H]2C(=O)O)sc2c1CCCCCC2 [Compound 27, (1R,2R)-2-{[3-(methoxycarbonyl)-4H,5H,6H,7H,8H,9H-cycloocta[b]thiophen-2-yl]carbamoyl}cyclohexane-1-carboxylic acid] | – | 50 to 100 µM |
